Results from patent US20080200433A1, “Molecular Chaperone Function Regulator” (priority 2004, published 2008).

Experiments:
HSP70 = assay: Time-dependent HSP70 induction in A-431 cells (Western blot); type: cell-based, human; conditions: 10 μM, vs DMSO control (FIG. 1)
Protocol: DMSO (0.1%) was added to the control. After the addition, the cells were collected 6, 9, 12 and 24 hr later and cell extracts were prepared. Expression of HSP70 protein in the cell extracts was examined by Western blot using an HSP70 specific antibody. T/C (%) was determined using the amount of chemical luminescence on a PVDF film due to an HRP-labeled secondary antibody as the HSP70 expression amount and HSP70 expression amount of the cells in the control well as 100.

[1] = test system: client proteins EGFR, HER2, ERα, AR, AKT and CDK4 of HSP90 chaperone; assay: Suppressive action on HSP90 client protein expression in MCF-7 cells (Western blot); type: cell-based, human; conditions: 10 μM, 24 hr, vs DMSO control (FIG. 3)
Protocol: After the addition of the compound, the cells were collected and divided in two 24 hr later. Cell extracts were prepared from half the cells, and cytoplasmic fraction and nuclear fraction were prepared from the remaining half. […] Expression of client in each tumor cell extract and nuclear fraction was examined by Western blot using an antibody specific to each client.

## COc1cc2ncnc(Nc3ccc(F)c(Cl)c3)c2cc1OCCCN1CCOCC1 [gefinitib, 4-(3′-Chloro-4′-fluoroanilino)-7-methoxy-6-(3-morpholinopropoxy)quinazoline, reference compound]
HSP70; 6 hr to 12 hr after treatment
  expression of HSP70: did not show a clear increase
HSP70; 24 hr after treatment
  expression of HSP70: decreased
[1]
  expression of HSP90 client proteins: a clear decrease of client was not observed
